Legend:
human PTH-1 receptors [1] = molecular target: T1, human PTH-1 receptors (Homo sapiens, UniProt Q03431); assay: PLC activation (IP3 formation) in HKRK B7 cells; type: cell-based; details: maximal concentrations of hPTH-(1-34), basal 898±142
T1 construct: expressed in transfected cells
T1 sequence (Q03431 27-593): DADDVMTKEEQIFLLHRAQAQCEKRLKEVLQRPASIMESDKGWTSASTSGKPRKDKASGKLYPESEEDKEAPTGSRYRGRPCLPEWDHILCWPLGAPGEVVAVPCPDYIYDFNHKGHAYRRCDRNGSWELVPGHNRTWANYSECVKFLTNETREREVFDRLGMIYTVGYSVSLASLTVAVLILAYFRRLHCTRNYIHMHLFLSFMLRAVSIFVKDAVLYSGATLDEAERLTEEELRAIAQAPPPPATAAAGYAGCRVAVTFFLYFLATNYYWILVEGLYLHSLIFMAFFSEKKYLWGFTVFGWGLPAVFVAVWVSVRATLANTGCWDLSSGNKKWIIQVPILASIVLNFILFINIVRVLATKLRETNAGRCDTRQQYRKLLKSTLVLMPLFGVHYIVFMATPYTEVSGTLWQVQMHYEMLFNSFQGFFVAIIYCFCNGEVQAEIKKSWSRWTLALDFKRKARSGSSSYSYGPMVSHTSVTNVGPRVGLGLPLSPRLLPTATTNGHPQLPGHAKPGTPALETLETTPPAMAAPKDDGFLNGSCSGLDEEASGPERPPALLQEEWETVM
Procedure: (§1) HKRK B7 or EW5 cells (32), subclones of LLC-PKI renal epithelial cells that stably express human or rat PTH-1 receptors (950,000 and 320,000 receptors/cell, respectively), were maintained under 5% CO2 in air in Dulbecco's modified essential medium containing 7% fetal bovine serum (FBS) and 1% penicillin/streptomycin (GIBCO-BRL, Grand Island, N.Y.). HEK-293 and COS-7 cells were cultured similarly, except that 10% FBS was used in the medium. Cells were seeded into 24-well plates two days before assay at a density of 2-2.5×10^5 cells/well (HKRK B7 or EW 5 cells) or 6×10^5 cells/well (in 6-well plates) (HEK-293 cells). In experiments involving HEK-293 cells, DNA transfections were performed 24 hr after plating and inositol radiolabel was added 24 hr thereafter (see below). COS-7 cell transfections were performed as previously described (Gardella, T. J., et al., Endocrinology 132(5):2024-2030 (1993))
PLC was activated by PTH agonists in the presence of 30 mM LiCl at 37° C. for 30 min after 16 hr of labeling with [^3H]myo-inositol (3 uCi/ml) in serum-free medium containing 0.1% bovine serum albumin. The reactions were stopped by rapid aspiration and addition of cold 5% TCA. Water-soluble radiolabeled inositol trisphosphate (IP3) was isolated after ether extraction by ion-exchange chromatography (Guo, J., et al., Endocrinology 136(9):3884-3891 (1995)). […]

human PTH-1 receptors [2] = molecular target: T1, human PTH-1 receptors; assay: Intracellular cAMP accumulation (adenylyl cyclase, AC, activation) in HKRK B7 cells; type: cell-based; details: maximal concentrations of hPTH-(1-34), basal 12 ±4
Procedure: HKRK B7 or EW5 cells (32), subclones of LLC-PKI renal epithelial cells that stably express human or rat PTH-1 receptors (950,000 and 320,000 receptors/cell, respectively), were maintained under 5% CO2 in air in Dulbecco's modified essential medium containing 7% fetal bovine serum (FBS) and 1% penicillin/streptomycin (GIBCO-BRL, Grand Island, N.Y.). HEK-293 and COS-7 cells were cultured similarly, except that 10% FBS was used in the medium. Cells were seeded into 24-well plates two days before assay at a density of 2-2.5×10^5 cells/well (HKRK B7 or EW 5 cells) or 6×10^5 cells/well (in 6-well plates) (HEK-293 cells). […] COS-7 cell transfections were performed as previously described (Gardella, T. J., et al., Endocrinology 132(5):2024-2030 (1993)) Intracellular cAMP accumulation, PLC activation and PTHR binding affinity were measured as previously reported (Bringhurst, F. R., et al., Endocrinology 132(5):2090-2098 (1993); Guo, J., et al., Endocrinology 136(9):3884-3891 (1995)). Intracellular cAMP accumulation was measured in extracts of cells that were exposed to human PTH peptides in the presence of isobutylmethyxanthine (IBMX, 1 mM) at 37° C. for 15 min. After terminating the reactions by aspiration and freezing in liquid nitrogen, cell monolayers were extracted with 50 mM HCl and cAMP was measured using a radioimmunoassay kit (Dupont-New England Nuclear, Boston, Mass.).

human PTH-1 receptors [3] = molecular target: T1, human PTH-1 receptors; assay: Radioligand competition binding with 125I-[Nle8,21,Tyr34]rat PTH-(1-34) in HKRK B7 cells; details: maximal concentrations of hPTH-(1-34), without competitor 25520±1909
Procedure: as §1, with “(1993)) Radioligand competition binding assays were performed at 2-8° C. for 6 hr using ^125I-[Nle^8,21,[…]]rat PTH-(1-34) (100,000 cpm/well) in the presence or absence of non-radioactive hPTH-(1-34) analogs. Cell layers were washed three times before solubilization for determination of cell-associated radioactivity.” for “(1993))”

IP3 formation, average level (human PTH-1 receptors [1]): 1908 ±251 cpm/well
cAMP accumulation, average level (human PTH-1 receptors [2]): 207±37 pmoles/well/15 min
radioligand binding, average level (human PTH-1 receptors [3]): 956±135 cpm/well
SMILES: CC[C@H](C)[C@H](NC(=O)[C@H](CCC(=O)O)NC(=O)[C@H](CO)NC(=O)[C@@H](NC(=O)[C@@H](N)CO)C(C)C)C(=O)N[C@@H](CCC(N)=O)C(=O)N[C@@H](CC(C)C)C(=O)N[C@@H](CCSC)C(=O)N[C@@H](Cc1c[nH]cn1)C(=O)N[C@@H](CC(N)=O)C(=O)N[C@@H](CC(C)C)C(=O)NCC(=O)N[C@@H](CCCCN)C(=O)N[C@@H](Cc1c[nH]cn1)C(=O)N[C@@H](CC(C)C)C(=O)N[C@@H](CC(N)=O)C(=O)N[C@@H](CO)C(=O)N[C@@H](CCSC)C(=O)N[C@@H](CCC(=O)O)C(=O)N[C@@H](CCCNC(=N)N)C(=O)N[C@H](C(=O)N[C@@H](CCC(=O)O)C(=O)N[C@@H](Cc1c[nH]c2ccccc12)C(=O)N[C@@H](CC(C)C)C(=O)N[C@@H](CCCNC(=N)N)C(=O)N[C@@H](CCCCN)C(=O)N[C@@H](CCCCN)C(=O)N[C@@H](CC(C)C)C(=O)N[C@@H](CCC(N)=O)C(=O)N[C@@H](CC(=O)O)C(=O)N[C@H](C(=O)N[C@@H](Cc1c[nH]cn1)C(=O)N[C@@H](CC(N)=O)C(=O)N[C@@H](Cc1ccc(O)cc1)C(N)=O)C(C)C)C(C)C [hPTH-(1-34), reference compound]

From patent publication US7479478B2, “Human parathyroid hormone modifications, preparation and use” (The General Hospital Corporation, priority 1998, dated 2009)
